This passage reports activity change, negative = cytotoxicity results from PubChem BioAssay AID924 (National Center for Advancing Translational Sciences (NCATS), 2007).

Structures are written as SMILES. This is a selection; strong and weak results do not stand in their true shares. Inconclusive results are not listed. Activity calls are given as the source filed them. The call rests on the fitted dose curve; in most records, active means well fitted cell-killing curve with a large enough effect; inconclusive means small, poorly fitted or top-dose-only effect; inactive means no such curve, though single readings can be large or run the other way.

A short description of this assay: qHTS Screen for Compounds that Selectively Target Cancer Cells with p53 Mutations: Cytotoxicity of p53ts Cells at the Permissive Temperature.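 Further: 0% = DMSO and -100% = full killing by reference compound; nearly all actives have a fitted effect of over 55% in size.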 The conditions noted are these: H1299-p53A138V at 32C, ATP luminescence viability, 24 h; at 1.84 µM (top of the series). On the technique in general: In qHTS, concentration-response curves come from the screen itself.
Turning to `O=[N+]([O-])C(Cl)(Cl)Cl`, the activity change, negative = cytotoxicity is inactive: -3.6%.
